Target: T1, mitochondrial fission 1 protein (Fis1), recombinant, as used in the field-effect biosensing assays (human, UniProt Q9Y3D6 1-152)
T1 construct: Fis1; also called hFis1; source: E. coli Rosetta, purified (Ni-NTA)
Test: field-effect biosensing (FEB, AGILE Dev Kit); protein (500 nM) cross-linked by EDC/sulfo-NHS to the graphene biosensor chip, peptide as analyte in a series of concentrations, PBS pH 7.4, room temperature, KD from a Hill fit, n = 3
Conditions: both partners purified

Amino acid sequences for entries named in this document (tags omitted). A change or cut given only in a name is not applied to a line headed by its entry.
UniProt Q9Y3D6: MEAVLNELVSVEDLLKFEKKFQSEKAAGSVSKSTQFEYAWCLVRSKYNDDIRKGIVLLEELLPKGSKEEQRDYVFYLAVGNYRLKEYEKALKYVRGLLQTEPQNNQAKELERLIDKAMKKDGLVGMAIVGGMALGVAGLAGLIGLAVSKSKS

B1: CVP-235 (peptide)
peptide: NRDMKTGL
modifications: N-terminal acetyl
notes: stretch of Mid51 (peptide derived from Mid51); overlaps CVP-233 by four residues; Made on Rink amide MBHA resin, so the C-terminus is probably an amide; source: synthetic peptide
Q: With B1 as the binder, how does the Kd read?
A: Its Kd is 3.88 mM.

Reference: paper PMC10773907 (Frontiers in Pharmacology, 2023)
